Data on one compound can be found in ChEMBL document CHEMBL5528055, “Discovery and Identification of Novel 5-Hydroxy-4H-benzo[1,4]oxazin-3-one Derivatives as Potent β2-Adrenoceptor Agonists through Structure-Based Design, Synthesis, and Biological Evaluation” (J Med Chem, 2024).

Protein sequences, listed by entry. Tags and fused reporters are not part of them.
UniProt P08588, whole entry: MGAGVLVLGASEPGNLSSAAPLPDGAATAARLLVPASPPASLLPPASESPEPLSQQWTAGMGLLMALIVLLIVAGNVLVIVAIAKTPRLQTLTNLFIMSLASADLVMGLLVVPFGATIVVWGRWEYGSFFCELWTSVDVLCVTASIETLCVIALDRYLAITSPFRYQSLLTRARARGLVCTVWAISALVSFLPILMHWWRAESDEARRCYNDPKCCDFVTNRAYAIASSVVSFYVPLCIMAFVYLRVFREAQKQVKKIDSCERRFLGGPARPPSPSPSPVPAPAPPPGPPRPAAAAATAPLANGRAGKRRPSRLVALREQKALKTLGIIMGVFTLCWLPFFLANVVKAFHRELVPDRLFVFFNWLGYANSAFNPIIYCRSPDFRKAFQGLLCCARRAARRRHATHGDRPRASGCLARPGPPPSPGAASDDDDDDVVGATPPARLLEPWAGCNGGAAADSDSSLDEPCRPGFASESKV

For this experiment, the target named is Beta-1 adrenergic receptor (Homo sapiens, UniProt P08588).

For the compound `O=C1COc2c(C(O)CNCCCc3cccc(F)c3)ccc(O)c2N1` (stereo unspecified), the EC50 (usually the concentration that produces a half-maximal response) is 151 pM.
